miR-122 sensor: blocks miR-122 activity in Huh7 sensor cells. activation (reporter increase), % at 12.5 µM. Huh7 miR-122 Renilla luciferase sensor, 48 h; neutral wells = 0, positive control = 100. actives 0.3% (n = 340,000);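 active = mean replicate activation score at least 90 and every replicate individually at or above 90; inconclusive = only one of the two criteria met; inactive = neither criterion met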;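 note: higher luciferase means less miR-122 activity so hits act as miR-122 inhibitors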
MITF TRPM1 HTS: activators of MITF-driven TRPM1 promoter activity in SK-MEL-5 cells. SK-MEL-5 TRPM1-promoter luciferase, 24 h; % of positive control, neutral wells = 0. activation, % at 12.5 µM. actives 0.75% (n = 300,000). AID 588334;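 active = mean activation of at least 80% with every replicate also reaching 80%; inconclusive = mean reaches 80% but some replicate falls short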;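 note: 0% = neutral control wells and 100% = parthenolide positive control wells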
PGC1a acetyl inh: modulators of PGC1a acetylation | actives 0.17% (n = 350,000) | AID 651687 | inhibition, % at 15.6 µM | U2OS PGC1a acetylation, AlphaScreen anti-acetyl-lysine; with virally co-expressed GCN5 acetyltransferase;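 active = every replicate shows inhibition of at least 40%; inconclusive = mean inhibition at least 40% but some replicate below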;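 note: 0% = neutral control wells and 100% = positive control wells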
TRPM1 prom inh: MITF TRPM1 promoter inhibition in SK-MEL-5 cells; inhibition, % at 12.5 µM; AID 488899; SK-MEL-5 TRPM1 promoter luciferase, 24 h; actives 0.83% (n = 330,000);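 active = mean inhibition across replicates of 60% or more, whatever share of single replicates reaches that level; inconclusive = some that reach 60%, reason not given; inactive = mean inhibition across replicates below 60%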
UUG fidelity: alters start codon recognition fidelity in yeast. S. cerevisiae UUG-firefly luciferase reporter, luminescence/redox ratio. activity score, % at 18.7 µM. 0.13% of 350,000 active. AID 602363;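 active = replicate mean at a twofold rise or more, about +100% in these data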;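 also: firefly luciferase made from a UUG start codon reports start codon fidelity; reporter light over untreated wells divided by growth signal over untreated wells; some hits fall short of that in this replicate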
Wnt bcat act: activates Wnt/beta-catenin signaling in a reporter cell assay; activator, plate reader; activation, % at 9.35 µM; actives 1.2% (n = 300,000); AID 743398; in the data active = activation above about 30%, passing the limit was not always enough; inconclusive = no clear call, values can overlap the other calls;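 note: 0% = neutral control wells and 100% = positive control wells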
Starred values were filed as active, the others as inactive; ? = inconclusive; . = no result given; [ ] = remark or other dose. Compounds with a hit are over-represented: about 2.1% of the library has one in this group of screens.

SMILES | miR-122 sensor | MITF TRPM1 HTS | PGC1a acetyl inh | TRPM1 prom inh | UUG fidelity | Wnt bcat act
CCOCCCNC(=O)/C(C#N)=C/c1ccc([N+](=O)[O-])o1 | -22 | -62 | 3 | 61* | -13 | 1
COc1ccc(NC(=O)N2C[C@@H](O)COC[C@H]3O[C@@H](CC(=O)NC4Cc5ccccc5C4)CC[C@@H]32)cc1 | -7[16.7 µM] | . | 3 | . | 22 | .
COc1ccc(CNC(=O)c2ccc(C(C)C)cc2)cc1 | . | 104* | . | -101 | . | 14
COc1ccc(CNC(=O)c2ccncc2)cc1 | 2 | -3 | 5 | 4 | -1 | 1
COc1ccc(CNC(=O)c2ccc(C(C)(C)C)cc2)cc1 | . | 102* | -4 | -95 | . | 6
COc1ccc(CN(C)C[C@H]2OCCCC[C@@H](C)Oc3ccc(NC(=O)Nc4cccc5ccccc45)cc3C(=O)N([C@@H](C)CO)C[C@@H]2C)cc1 | -13[16.7 µM] | . | 11 | . | 32 | .
O=C(CN1CCOCC1)N1CC(=O)N2[C@H](CO)[C@@H](c3ccc(/C=C/c4ccccc4)cc3)[C@@H]2C1 | . | . | -2 | . | . | .
CC(=O)Nc1ccc(S(=O)(=O)C(C#N)c2nc3ccccc3nc2NCCCO)cc1 (stereo unspecified) | 1 | -3 | 4 | 5 | -18 | 2
CC(=O)Nc1ccc(S(=O)(=O)C(C#N)c2nc3ccccc3nc2NCCO)cc1 (stereo unspecified) | ? | 1 | 11 | 1 | -11 | 46*
COc1ccc(S(=O)(=O)N(C(C)=O)c2ccc(OC(C)=O)c3ccccc23)cc1[N+](=O)[O-] | 22 | -70 | 20 | 71* | -1 | -1
Cc1ccc2[nH]c(-c3cccc(N)c3)cc2c1 | 0 | 70 | -3 | -66 | -14 | 82*
O=C(C[C@@H]1C[C@@H]2c3cc(NS(=O)(=O)c4ccc(F)cc4)ccc3O[C@@H]2[C@@H](CO)O1)NCc1cc(F)ccc1F | -4[16.7 µM] | . | 11 | . | 1 | .
Cc1cc(C)c2nc(NCc3ccccc3O)sc2c1 | -4 | 95* | -7 | -161 | -7 | 16
[O-][n+]1ccc(C2CC2)cc1 | 7 | . | -1 | 1 | -46 | 39*
O=C(c1ccccc1)c1cc[n+]([O-])cc1 | -3 | . | . | -3 | -9 | -3
Cc1ccccc1-c1cnc2c(c1)C(=O)N([C@H](C)CO)C[C@H](C)[C@H](CN(C)C(=O)CC1CC1)O2 | 20[16.7 µM] | . | -7 | . | . | .
O=C(CSc1nc2ccccc2c(=O)n1NC(=O)c1ccccc1)c1ccc(Cl)cc1 | -7 | 42 | . | -45 | -38 | 32*
COC(=O)CCS(=O)(=O)c1nc(-c2ccccc2)cc(C(F)(F)F)n1 | . | -93 | . | 94* | . | .
CCOC(=O)CS(=O)(=O)c1nc(-c2ccc(F)cc2)cc(C(F)(F)F)n1 | -10 | -100 | 27 | 99* | -29 | .
CCOC(=O)CCS(=O)(=O)c1nc(-c2ccccc2)cc(C(F)(F)F)n1 | -51 | -85 | 68* | 85* | -31 | .
CCOC(=O)CS(=O)(=O)c1nc(-c2ccccc2)cc(C(F)(F)F)n1 | -17 | -101 | 58* | 102* | . | .
CCOC(=O)c1c(C(F)(F)F)cc(-c2ccc(F)cc2)nc1C | . | 10 | . | -8 | . | -1
CCOC(=O)CS(=O)(=O)c1ccccc1 | -3 | 8 | -11 | -6 | -18 | 3
CO[C@@H]1CN(C)C(=O)c2cc(NC(=O)c3cc(C)on3)ccc2OC[C@@H](C)N(C(=O)C2CC2)C[C@H]1C | -4[16.7 µM] | . | -7 | . | 6 | .
Cc1cc(NC(=O)CSc2nc(-c3cccs3)cc(C(F)(F)F)n2)no1 | 40 | -34 | -3 | 34 | -11 | .

Sorted by molar mass (smallest number first): some entries from above.
SMILES | miR-122 sensor | MITF TRPM1 HTS | PGC1a acetyl inh | TRPM1 prom inh | UUG fidelity | Wnt bcat act
COc1ccc(CNC(=O)c2ccc(C(C)C)cc2)cc1 | . | 104* | . | -101 | . | 14
Cc1cc(NC(=O)CSc2nc(-c3cccs3)cc(C(F)(F)F)n2)no1 | 40 | -34 | -3 | 34 | -11 | .
O=C(CSc1nc2ccccc2c(=O)n1NC(=O)c1ccccc1)c1ccc(Cl)cc1 | -7 | 42 | . | -45 | -38 | 32*
O=C(C[C@@H]1C[C@@H]2c3cc(NS(=O)(=O)c4ccc(F)cc4)ccc3O[C@@H]2[C@@H](CO)O1)NCc1cc(F)ccc1F | -4[16.7 µM] | . | 11 | . | 1 | .

Further records.
SMILES | miR-122 sensor | MITF TRPM1 HTS | PGC1a acetyl inh | TRPM1 prom inh | UUG fidelity | Wnt bcat act
Cc1cc(NC(=O)CCCS(=O)(=O)c2nc(-c3cccs3)cc(C(F)(F)F)n2)no1 | -4 | -95 | -12 | 95* | -15 | -26
COc1ccc(-c2cc(C(F)(F)F)nc(S(=O)(=O)CCCC(=O)Nc3cccnc3Cl)n2)cc1OC | . | -79 | . | 79* | . | 0
CC(C)NC(=O)Nc1ccc2c(c1)C(=O)N([C@H](C)CO)C[C@@H](C)[C@H](CN(C)C(=O)c1ccncc1)OCCCC[C@@H](C)O2 | 8[16.7 µM] | . | -6 | . | . | .
O=C(/C=C/c1ccccc1Cl)N1CCOCC1 | -4 | . | -19 | -16 | -10 | 2
O=C(/C=C/c1cccc2ccccc12)N1CCOCC1 | . | 46 | . | -53 | . | 37*
O=C1Nc2cc(C(=O)NCCCN3CCCC3)ccc2S/C1=C\c1ccccc1 | -6 | -95 | -5 | 96* | -8 | 0

Bioassay records (PubChem BioAssay)
